## Binding of CDR-mutated scFvs to a peptide of the spike HR2 region

Values reported by Engelhart et al. 2022, doi:10.1038/s41597-022-01779-4 (FLAb copy).

Antigen: PDVDLGDISGINAS, a 14-residue peptide of the SARS-CoV-2 spike HR2 region.

Parent: Ab-91, a human scFv built as VL, three GGGGS repeats, VH. Only the CDRs of the heavy chain vary.
VL: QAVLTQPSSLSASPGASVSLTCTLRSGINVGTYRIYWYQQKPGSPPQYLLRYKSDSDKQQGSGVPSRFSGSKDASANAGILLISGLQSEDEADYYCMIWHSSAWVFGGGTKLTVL
VH: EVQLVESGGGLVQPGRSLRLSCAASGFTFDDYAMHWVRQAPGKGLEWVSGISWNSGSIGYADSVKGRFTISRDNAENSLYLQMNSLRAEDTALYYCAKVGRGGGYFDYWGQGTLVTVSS

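Library AAYL51 holds single substitutions and randomly drawn double and triple substitutions in the CDRs. In AlphaSeq, yeast of one mating type display the scFv and yeast of the other type display the target. Mating (16 h, 30 °C) was followed by selection of diploids and sequencing of their barcodes. Each replicate has its own calibration line, from reference interactions of the BCL2 family. There are three technical replicates.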

Variants are written as CDR1, CDR2 and CDR3 of the heavy chain (limits as in the source). Parent: GFTFDDYAMH, GISWNSGSIGYADSVK, VGRGGGYFDY.
Values are log10 of the apparent Kd in nM; lower means stronger binding.
The mean shown is taken over the replicates in which the pair was detected.
An entry "no signal" has no value in the source: the pair was not observed among the diploids in any replicate. This suggests poor binding but is not conclusive.
Three control strains display no target. For library AAYL51, 21% of the pairings with them gave a signal, with a median of 4.54 and one signal in twenty below 3.26, so weak values seen in few replicates may be background. For each scFv, signals with the empty controls are counted beside the result.
In this assay the parent's reference entry averaged 1.86; its copy inside this library read 0.88.

"mean, log10 nM",detected,control signals,CDR-H1,CDR-H2,CDR-H3
5.48,3/3,7/9,GFTFDDYAMH,MISWNQGSKGYADSVK,VGRGGGYFDY
no signal,0/3,2/9,GFTFDDYAMH,GISWNSGSHGYADSVK,VGRGRGYYDY
3.35,2/3,1/9,GFTFDDYAMH,GISWNSGAIGLADSVK,VGRGGGNFDY
4.80,3/3,3/9,GFTFDDRAMH,GISYNSGSIGYVDSVK,VGRGGGYFDY
2.71,3/3,5/9,GFLFDDTAMH,GISWNSGSIGYAESVK,VGRGGGYFDY
4.68,1/3,0/9,GFTFDDYAMH,SISWNSGSIGYPDSVK,VGRGGGYFDY
5.44,2/3,5/9,GFEFDDYAMH,GISWNSGSYGDADSVK,VGRGGGYFDY
5.06,2/3,5/9,GFTSDDYAMH,GISWNSGSIGYADSVR,VGRGHGYFDY
no signal,0/3,0/9,GFTFDDYAMH,GISWNSGSIKYADSVK,VGPGGGAFDY
4.32,2/3,3/9,GFTFDDYAMH,GISWLSGSNGYADSVK,VGRGGGFFDY
5.40,1/3,1/9,GWTFDDDAMH,GISWNSGSIGYADKVK,VGRGGGYFDY
no signal,0/3,0/9,GFTFDDYAMH,KISWISGSIGVADSVK,VGRGGGYFDY
4.96,3/3,7/9,GFTFDDYAMH,FISWNSQSIGYADSVK,VGRGGGYFIY
4.97,1/3,0/9,GFTFDDYAMP,GSSWNSGSIGYADSVP,VGRGGGYFDY
no signal,0/3,2/9,GFTFDDYDMH,GISWNSGSIGYADSVK,VGRYGCYFDY
5.48,2/3,1/9,GFTFDDCAMH,GISWNIGSIGYADSVK,VGRGGGYFTY
4.68,2/3,5/9,GFTDDDYAMH,GGSWNSGSIGYADSVK,VGRGGHYFDY
no signal,0/3,0/9,GFTFDDYAKH,GISNNSGSIGTADSVK,VGRGGGYFDY
5.17,1/3,4/9,GDTFDDYAMH,GISWNSGSIGYAKSVK,VGRGGGDFDY
no signal,0/3,0/9,GFTFDDYAMH,GISWNSGRIGYADSVP,VGRGGGYFDY
no signal,0/3,0/9,GFTFDDYAMH,IISWNSGSIGYADSVK,VGHGGGPFDY
no signal,0/3,0/9,GFTFDDYAMH,GGSWNSGSIGYADSVK,VGRGGYYFDQ
5.67,1/3,3/9,GFTFDDYAFH,GKSWNDGSIGYADSVK,VGRGGGYFDY
4.90,1/3,0/9,GFTNDDYAMH,GISWNSISIGYADSVK,VGRGGGIFDY
4.67,1/3,2/9,GFTFDDWAMH,GISWNSGSIGYADSVK,HGRGGGSFDY
5.29,3/3,2/9,GFTFDCYAMH,GVSLNSGSIGYADSVK,VGRGGGYFDY
no signal,0/3,0/9,GFTFDDKAMH,GISWNSGSIGYADSVK,VGRGGGREDY
4.07,2/3,0/9,GFTFDDYAMH,GWSWNSGSTGYADSVK,VGLGGGYFDY
no signal,0/3,0/9,GFTVDDYPMH,GISWNSGSIGYADSVK,VGRGSGYFDY
4.65,2/3,4/9,GFTFDDYAMH,GISWNSTSIGYADMVK,VGRGGGYFDY
no signal,0/3,0/9,GFTFDDYAMH,GISWNSGSICYADSVK,VGPGRGYFDY
3.97,2/3,0/9,GFTFDDYADH,GISWNIGSIGYADSVK,VGRGGGYFDL
1.28,3/3,5/9,GFTFDDYAMH,GISWNSGSTGYADSVK,VGRGEGYFDY
no signal,0/3,0/9,GDTFDDYAMH,GISHNSGSIGYADSVK,VGRGGGYTDY
no signal,0/3,0/9,GFTFDDYAMH,GISWNSGAIGYADSVF,VGRGGGYFDQ
4.62,2/3,3/9,GFTFDDYAMH,GIMQNSGSITYADSVK,VGRGGGYFDY
no signal,0/3,4/9,GFTQDDYAMH,GISWESGSIGYADSVK,VPRGGGYFDY
no signal,0/3,0/9,MFTFGDYAMH,GISWTSGSIGYADSVK,VGRGGGYFDY
no signal,0/3,0/9,GFTFDDYAMH,GSSWNSGSIGYADSVK,VIRGGGLFDY
3.36,3/3,3/9,GFTFPDYAMH,GISWNSGSIGYACSVK,VGRDGGYFDY
no signal,0/3,1/9,GFTKDDYAMH,GISINSGSIGYADSVK,MGRGGGYFDY
no signal,0/3,0/9,GFTFDDYAMH,GISWNSESIGYADTYK,VGRGGGYFDY
no signal,0/3,1/9,GFTFDDYAEH,GISWNSGSNGAADSVK,VGRGGGYFDY
4.55,1/3,2/9,GFTFDSYAMH,GISWNSGSIGYADSVK,VGRGGGYRDY
5.28,2/3,6/9,GFTFDPHAMH,GISWNSGSIGYADSVK,VGRGGGYFWY
4.91,2/3,5/9,GFTFDDYAMH,GISWNSGSIGYADSVS,VGRGSGCFDY
1.28,3/3,1/9,GFTFDDHAMH,GISWNSGSRGYADSVA,VGRGGGYFDY
4.43,1/3,5/9,GFTFGDYAMA,GISWNSGSIGYADSVY,VGRGGGYFDY
4.26,1/3,1/9,GFTFDDYAMG,GISWNSGSIGYADSVK,VGSGGGYFDY
no signal,0/3,0/9,GFTTDDYAMH,GISWNSGSIGYADSVC,FGRGGGYFDY
no signal,0/3,0/9,GFTFHDYAMH,GISWNSGSHGYADSVK,VGRGGTYFDY
3.04,3/3,1/9,GFTFDDYGMH,GISWMSGSIGYADSVD,VGRGGGYFDY
2.37,3/3,5/9,GFTFDDYAMH,GISWNSGSCGYADSVK,VGRGGQTFDY
4.94,3/3,4/9,GFTFDHYAMH,GISRNSTSIGYADSVK,VGRGGGYFDY
no signal,0/3,0/9,GFTFDDYAMH,GISYNSGSIGYADSVK,VMRGGGYFDY
no signal,0/3,2/9,GFTFDDYAMS,GISWNSGSIGYADKVK,VGRGGGYFHY
4.14,1/3,0/9,GFTFDDYAPH,GISWNSPSDGYADSVK,VGRGGGYFDY
4.49,1/3,1/9,GFTFCDYAMH,IISWNSGSIGYADSVK,VGRGGQYFDY
3.38,1/3,1/9,GFTFDDYAMH,GISWLSGSLGYADSVK,VGRGGGYADY
4.39,2/3,1/9,GVTFDDCAMH,GISWNSGSIGYADSVK,VMRGGGYFDY
4.82,1/3,4/9,AFTFDDYAMH,GISWNSGSIGYADSVK,VGREGGYFDY
no signal,0/3,0/9,GFTDDDYAMH,HISWNSGSIGYADSVK,VGRVGGYFDY
4.39,1/3,0/9,GFTFDDYAMH,GISWNSLRIGYADSVK,VGRGWGYFDY
2.32,1/3,0/9,GFTFDLYAMH,GISWNSGSIGYADSVC,VGRGDGYFDY
no signal,0/3,0/9,GFTFDLYPMH,GISWNSGSIGYADSVK,VGRGGGYRDY
4.14,1/3,1/9,GFTFDDYAMH,GISWRSPSIRYADSVK,VGRGGGYFDY
no signal,0/3,0/9,GFTFDDYAMH,GISWNSGSIKYADSVK,VGRGGGYFCY
no signal,0/3,0/9,GFTFDDYAMH,GISWNSGSIKYADSWK,VGRGGGYFDY
3.13,1/3,0/9,GFTFDDYAFH,GISWNSGSHGYADSVK,VGRGGGYYDY

Excerpt, the first 7 entries:

CDR-H1	CDR-H2	CDR-H3	mean, log10 nM	detected	control signals
GFTFDDYAMH	MISWNQGSKGYADSVK	VGRGGGYFDY	5.48	3/3	7/9
GFTFDDYAMH	GISWNSGSHGYADSVK	VGRGRGYYDY	no signal	0/3	2/9
GFTFDDYAMH	GISWNSGAIGLADSVK	VGRGGGNFDY	3.35	2/3	1/9
GFTFDDRAMH	GISYNSGSIGYVDSVK	VGRGGGYFDY	4.80	3/3	3/9
GFLFDDTAMH	GISWNSGSIGYAESVK	VGRGGGYFDY	2.71	3/3	5/9
GFTFDDYAMH	SISWNSGSIGYPDSVK	VGRGGGYFDY	4.68	1/3	0/9
GFEFDDYAMH	GISWNSGSYGDADSVK	VGRGGGYFDY	5.44	2/3	5/9